# Laboratory results as given in ChEMBL document CHEMBL1201862, “PubChem BioAssay data set” (2004).
# The chains behind the UniProt entries cited, without tags or fusion partners.
# UniProt Q9UIF8, whole entry: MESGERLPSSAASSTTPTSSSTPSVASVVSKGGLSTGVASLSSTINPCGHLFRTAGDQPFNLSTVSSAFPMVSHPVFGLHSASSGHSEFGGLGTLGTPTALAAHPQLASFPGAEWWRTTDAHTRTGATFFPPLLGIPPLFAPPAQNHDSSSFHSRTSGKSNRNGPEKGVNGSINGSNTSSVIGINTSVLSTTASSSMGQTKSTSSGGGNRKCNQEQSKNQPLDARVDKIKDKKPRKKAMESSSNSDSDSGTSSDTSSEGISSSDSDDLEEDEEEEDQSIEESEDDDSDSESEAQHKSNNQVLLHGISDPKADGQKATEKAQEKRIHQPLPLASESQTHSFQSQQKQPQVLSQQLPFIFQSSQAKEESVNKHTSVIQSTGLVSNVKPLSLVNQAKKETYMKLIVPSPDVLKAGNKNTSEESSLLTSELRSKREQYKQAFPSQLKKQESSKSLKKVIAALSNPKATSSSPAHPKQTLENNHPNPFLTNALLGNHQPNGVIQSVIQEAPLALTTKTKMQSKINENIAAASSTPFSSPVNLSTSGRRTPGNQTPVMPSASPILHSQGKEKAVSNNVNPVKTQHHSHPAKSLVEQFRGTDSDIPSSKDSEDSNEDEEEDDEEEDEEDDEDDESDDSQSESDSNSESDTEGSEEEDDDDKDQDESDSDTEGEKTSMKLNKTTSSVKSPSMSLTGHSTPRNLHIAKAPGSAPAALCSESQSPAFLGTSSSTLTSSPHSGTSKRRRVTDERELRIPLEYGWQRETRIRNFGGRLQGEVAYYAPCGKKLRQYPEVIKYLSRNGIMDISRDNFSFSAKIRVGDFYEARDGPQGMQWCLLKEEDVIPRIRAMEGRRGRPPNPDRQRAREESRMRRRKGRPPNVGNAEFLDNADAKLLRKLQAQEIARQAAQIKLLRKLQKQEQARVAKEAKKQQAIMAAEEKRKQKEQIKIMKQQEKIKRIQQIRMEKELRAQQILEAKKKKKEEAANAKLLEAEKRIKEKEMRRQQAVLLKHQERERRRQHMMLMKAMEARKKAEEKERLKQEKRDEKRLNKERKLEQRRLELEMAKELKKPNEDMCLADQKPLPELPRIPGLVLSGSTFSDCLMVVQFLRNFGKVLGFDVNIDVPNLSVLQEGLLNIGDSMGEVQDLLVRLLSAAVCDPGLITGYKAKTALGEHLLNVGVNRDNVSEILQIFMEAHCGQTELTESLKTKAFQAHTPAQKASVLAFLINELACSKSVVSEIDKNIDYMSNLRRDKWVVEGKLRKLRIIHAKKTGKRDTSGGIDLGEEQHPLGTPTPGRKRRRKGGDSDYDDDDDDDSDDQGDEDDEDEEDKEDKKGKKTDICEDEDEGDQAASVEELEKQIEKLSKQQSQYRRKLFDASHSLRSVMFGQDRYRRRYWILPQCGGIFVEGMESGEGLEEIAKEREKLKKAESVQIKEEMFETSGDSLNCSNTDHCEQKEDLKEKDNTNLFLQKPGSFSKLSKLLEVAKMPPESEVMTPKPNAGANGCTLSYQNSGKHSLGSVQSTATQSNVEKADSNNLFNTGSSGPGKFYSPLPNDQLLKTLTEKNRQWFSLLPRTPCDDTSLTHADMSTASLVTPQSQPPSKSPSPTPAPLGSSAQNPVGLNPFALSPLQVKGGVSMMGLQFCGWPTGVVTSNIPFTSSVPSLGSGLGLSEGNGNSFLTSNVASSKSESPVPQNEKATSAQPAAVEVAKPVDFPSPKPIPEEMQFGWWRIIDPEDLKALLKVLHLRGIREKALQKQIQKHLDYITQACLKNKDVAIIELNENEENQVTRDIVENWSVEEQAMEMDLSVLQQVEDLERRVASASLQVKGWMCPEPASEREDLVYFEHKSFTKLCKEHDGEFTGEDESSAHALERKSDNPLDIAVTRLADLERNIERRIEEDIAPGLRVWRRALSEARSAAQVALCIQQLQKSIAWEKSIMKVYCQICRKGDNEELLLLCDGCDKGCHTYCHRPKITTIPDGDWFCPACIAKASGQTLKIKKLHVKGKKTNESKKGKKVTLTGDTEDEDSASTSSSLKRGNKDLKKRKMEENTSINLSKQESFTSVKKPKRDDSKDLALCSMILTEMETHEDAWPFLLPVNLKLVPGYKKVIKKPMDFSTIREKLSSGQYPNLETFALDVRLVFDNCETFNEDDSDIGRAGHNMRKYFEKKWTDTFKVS
# UniProt Q99700, whole entry: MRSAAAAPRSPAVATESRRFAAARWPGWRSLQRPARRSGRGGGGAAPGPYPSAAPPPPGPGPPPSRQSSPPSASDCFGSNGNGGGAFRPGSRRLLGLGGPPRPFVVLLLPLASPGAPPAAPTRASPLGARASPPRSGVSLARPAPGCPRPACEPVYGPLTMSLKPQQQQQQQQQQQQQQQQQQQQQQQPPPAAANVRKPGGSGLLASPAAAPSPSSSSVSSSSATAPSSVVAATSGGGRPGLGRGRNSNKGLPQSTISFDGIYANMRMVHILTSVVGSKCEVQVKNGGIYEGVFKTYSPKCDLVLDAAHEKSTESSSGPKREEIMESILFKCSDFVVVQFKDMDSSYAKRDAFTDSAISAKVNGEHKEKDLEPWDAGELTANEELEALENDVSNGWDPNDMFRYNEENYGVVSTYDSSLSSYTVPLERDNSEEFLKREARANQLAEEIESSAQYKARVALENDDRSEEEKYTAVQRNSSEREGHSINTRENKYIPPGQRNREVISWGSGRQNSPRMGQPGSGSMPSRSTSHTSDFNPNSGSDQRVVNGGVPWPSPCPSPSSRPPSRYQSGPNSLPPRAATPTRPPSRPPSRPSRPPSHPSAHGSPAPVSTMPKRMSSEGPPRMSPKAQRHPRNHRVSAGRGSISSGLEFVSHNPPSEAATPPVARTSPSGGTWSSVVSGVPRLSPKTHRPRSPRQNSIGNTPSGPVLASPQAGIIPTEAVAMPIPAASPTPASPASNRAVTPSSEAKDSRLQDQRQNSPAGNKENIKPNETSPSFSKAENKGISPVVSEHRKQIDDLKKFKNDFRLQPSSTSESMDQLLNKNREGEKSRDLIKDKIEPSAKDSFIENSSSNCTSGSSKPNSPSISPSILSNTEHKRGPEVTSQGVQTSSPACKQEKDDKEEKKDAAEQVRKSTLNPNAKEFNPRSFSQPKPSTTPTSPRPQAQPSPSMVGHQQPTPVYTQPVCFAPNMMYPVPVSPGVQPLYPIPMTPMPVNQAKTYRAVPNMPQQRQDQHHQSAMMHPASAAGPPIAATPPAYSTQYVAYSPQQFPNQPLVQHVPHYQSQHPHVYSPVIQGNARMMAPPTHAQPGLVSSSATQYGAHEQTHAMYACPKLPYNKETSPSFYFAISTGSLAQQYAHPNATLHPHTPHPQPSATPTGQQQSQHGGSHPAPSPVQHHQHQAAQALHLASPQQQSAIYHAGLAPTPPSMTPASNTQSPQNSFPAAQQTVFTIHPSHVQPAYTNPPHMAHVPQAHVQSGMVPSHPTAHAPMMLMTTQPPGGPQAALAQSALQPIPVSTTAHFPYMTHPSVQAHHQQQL
# The entries are a selection whose mix differs from that of the whole data set. Only a part of the results of these assays is listed, not drawn at random. For some of these results: Potency and affinity values are given separately. Some of the results follow. Activity calls are given as the source filed them.
# Experiments:
# [1] = test system: NCI-H23
# [2] = test system: RXF 393
# [3] = test system: P388/ADR
# [4] = test system: SN12K1
# [5] = test system: P388
# [6] = molecular target: T1, Aldehyde dehydrogenase 1A1 (Homo sapiens) (UniProt P00352); assay: qHTS Assay for Inhibitors of Aldehyde Dehydrogenase 1 (ALDH1A1). [Related pubchem assays: 1030 (qHTS Validation Assay for Inhibitors of aldehyde dehydrogenase 1 (ALDH1A1))]; type: functional
# T1 sequence (whole entry): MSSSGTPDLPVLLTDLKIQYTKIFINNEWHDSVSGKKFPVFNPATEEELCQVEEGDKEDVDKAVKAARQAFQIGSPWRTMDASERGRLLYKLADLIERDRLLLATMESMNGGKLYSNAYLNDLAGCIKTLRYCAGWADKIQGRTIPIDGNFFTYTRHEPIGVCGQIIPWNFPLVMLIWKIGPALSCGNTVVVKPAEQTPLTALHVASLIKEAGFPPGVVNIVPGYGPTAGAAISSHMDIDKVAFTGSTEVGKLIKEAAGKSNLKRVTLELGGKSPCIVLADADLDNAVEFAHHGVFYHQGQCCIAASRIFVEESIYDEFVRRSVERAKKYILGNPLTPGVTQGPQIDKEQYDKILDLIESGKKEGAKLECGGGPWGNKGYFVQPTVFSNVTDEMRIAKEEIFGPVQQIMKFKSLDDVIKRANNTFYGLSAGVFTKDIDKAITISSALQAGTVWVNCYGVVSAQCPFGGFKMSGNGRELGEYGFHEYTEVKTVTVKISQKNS
# [7] = qHTS for induction of synthetic lethality in tumor cells producing 2HG: qHTS for the HT-1080-IDH1KD cell line.; type: functional
# [8] = molecular target: T2, Inositol monophosphatase 1 (Rattus norvegicus) (UniProt P97697); assay: qHTS Assay for Identifying the Cell-Membrane Permeable IMPase Inhibitors: Potentiation with Lithium. [Related pubchem assays: 901 ]; type: functional
# T2 sequence (whole entry): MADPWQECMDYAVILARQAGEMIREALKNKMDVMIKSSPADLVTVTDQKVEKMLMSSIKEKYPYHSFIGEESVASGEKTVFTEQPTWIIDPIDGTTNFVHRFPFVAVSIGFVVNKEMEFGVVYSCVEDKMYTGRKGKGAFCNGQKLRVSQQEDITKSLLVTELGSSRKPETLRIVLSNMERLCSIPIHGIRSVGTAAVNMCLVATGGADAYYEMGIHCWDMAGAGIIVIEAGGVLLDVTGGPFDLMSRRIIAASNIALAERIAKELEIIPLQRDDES
# [9] = molecular target: Bromodomain adjacent to zinc finger domain protein 2B (Homo sapiens) (UniProt Q9UIF8); assay: qHTS Assay for Inhibitors of BAZ2B. [Related pubchem assays (depositor defined):AID504391]; type: functional
# [10] = molecular target: T3, Histone-lysine N-methyltransferase EHMT2 (Homo sapiens) (UniProt Q96KQ7); assay: qHTS Assay for Inhibitors of Histone Lysine Methyltransferase G9a. [Related pubchem assays (depositor defined):AID504404]; type: functional
# T3 sequence (whole entry): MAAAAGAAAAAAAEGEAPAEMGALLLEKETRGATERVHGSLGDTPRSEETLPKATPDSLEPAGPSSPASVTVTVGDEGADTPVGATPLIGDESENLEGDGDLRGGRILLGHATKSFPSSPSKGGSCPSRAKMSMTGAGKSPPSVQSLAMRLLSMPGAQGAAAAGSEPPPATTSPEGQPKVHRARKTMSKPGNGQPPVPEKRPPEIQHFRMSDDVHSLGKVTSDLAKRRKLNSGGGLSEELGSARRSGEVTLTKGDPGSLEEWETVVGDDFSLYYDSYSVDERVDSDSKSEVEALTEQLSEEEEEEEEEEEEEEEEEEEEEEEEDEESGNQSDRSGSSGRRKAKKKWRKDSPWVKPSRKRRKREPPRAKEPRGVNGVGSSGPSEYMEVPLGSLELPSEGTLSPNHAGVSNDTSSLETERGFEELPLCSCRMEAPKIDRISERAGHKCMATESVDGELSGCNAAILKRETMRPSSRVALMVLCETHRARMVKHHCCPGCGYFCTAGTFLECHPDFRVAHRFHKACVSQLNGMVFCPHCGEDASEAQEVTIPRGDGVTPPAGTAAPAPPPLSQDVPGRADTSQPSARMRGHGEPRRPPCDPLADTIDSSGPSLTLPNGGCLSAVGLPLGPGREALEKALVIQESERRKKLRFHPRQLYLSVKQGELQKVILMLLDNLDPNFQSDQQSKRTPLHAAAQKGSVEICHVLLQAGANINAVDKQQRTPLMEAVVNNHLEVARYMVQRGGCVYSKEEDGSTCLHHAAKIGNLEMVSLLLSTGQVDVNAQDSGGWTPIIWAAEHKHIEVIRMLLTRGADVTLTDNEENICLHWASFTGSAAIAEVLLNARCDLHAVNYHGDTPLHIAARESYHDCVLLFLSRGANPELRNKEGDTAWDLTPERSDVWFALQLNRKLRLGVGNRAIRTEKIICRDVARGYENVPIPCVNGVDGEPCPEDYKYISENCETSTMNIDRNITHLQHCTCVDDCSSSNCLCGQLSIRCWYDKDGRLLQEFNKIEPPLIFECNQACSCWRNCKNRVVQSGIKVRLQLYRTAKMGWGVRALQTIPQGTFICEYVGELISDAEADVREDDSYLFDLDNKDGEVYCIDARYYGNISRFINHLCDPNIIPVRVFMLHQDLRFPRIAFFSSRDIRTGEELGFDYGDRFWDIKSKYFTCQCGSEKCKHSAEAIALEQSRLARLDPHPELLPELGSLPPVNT
# [11] = molecular target: Guanine nucleotide-binding protein G(s) subunit alpha isoforms short (Homo sapiens) (UniProt P63092); assay: qHTS for Antagonists of gsp, the Etiologic Mutation Responsible for Fibrous Dysplasia/McCune-Albright Syndrome: qHTS.; type: functional
# [12] = molecular target: T4, Thioredoxin reductase 1, cytoplasmic (Rattus norvegicus) (UniProt O89049); assay: qHTS Assay for Substrates of Mammalian Selenoprotein Thioredoxin Reductase 1 (TrxR1): qHTS. [Related pubchem assays (depositor defined):AID488771]; type: functional
# T4 sequence (whole entry): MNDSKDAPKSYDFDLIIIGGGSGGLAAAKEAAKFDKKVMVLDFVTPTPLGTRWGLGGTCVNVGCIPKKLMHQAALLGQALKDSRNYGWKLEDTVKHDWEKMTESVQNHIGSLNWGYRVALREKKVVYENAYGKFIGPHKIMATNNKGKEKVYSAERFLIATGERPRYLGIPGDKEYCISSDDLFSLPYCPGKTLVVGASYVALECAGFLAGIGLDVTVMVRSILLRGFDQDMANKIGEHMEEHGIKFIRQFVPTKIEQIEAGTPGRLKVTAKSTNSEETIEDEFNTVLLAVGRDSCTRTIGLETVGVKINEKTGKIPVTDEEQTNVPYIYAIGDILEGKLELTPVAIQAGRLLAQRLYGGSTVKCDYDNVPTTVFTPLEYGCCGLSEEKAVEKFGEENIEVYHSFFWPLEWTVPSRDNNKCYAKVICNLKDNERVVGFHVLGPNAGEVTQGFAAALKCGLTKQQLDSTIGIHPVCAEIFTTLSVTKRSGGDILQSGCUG
# [13] = molecular target: T5, Glutaminase kidney isoform, mitochondrial (Homo sapiens) (UniProt O94925); assay: qHTS for Inhibitors of Glutaminase (GLS).; type: functional
# T5 sequence (whole entry): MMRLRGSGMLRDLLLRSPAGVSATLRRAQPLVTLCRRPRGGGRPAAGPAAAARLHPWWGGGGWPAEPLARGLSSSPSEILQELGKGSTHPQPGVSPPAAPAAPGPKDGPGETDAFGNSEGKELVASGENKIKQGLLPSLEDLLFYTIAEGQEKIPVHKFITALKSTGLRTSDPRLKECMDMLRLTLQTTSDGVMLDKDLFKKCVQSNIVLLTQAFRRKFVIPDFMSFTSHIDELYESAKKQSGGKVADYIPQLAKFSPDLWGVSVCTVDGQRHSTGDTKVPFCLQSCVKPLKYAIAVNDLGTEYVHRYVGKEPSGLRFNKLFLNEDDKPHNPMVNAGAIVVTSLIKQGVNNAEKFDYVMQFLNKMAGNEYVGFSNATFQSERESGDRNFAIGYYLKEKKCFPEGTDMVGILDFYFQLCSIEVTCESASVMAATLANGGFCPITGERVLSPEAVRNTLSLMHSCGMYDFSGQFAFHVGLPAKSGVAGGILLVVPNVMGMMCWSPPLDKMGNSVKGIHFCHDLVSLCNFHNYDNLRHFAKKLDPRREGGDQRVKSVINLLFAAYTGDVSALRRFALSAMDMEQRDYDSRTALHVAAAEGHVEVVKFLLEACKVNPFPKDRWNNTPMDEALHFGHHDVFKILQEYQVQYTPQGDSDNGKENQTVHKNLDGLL
# [14] = molecular target: Ataxin-2 (Homo sapiens) (UniProt Q99700); assay: qHTS for Inhibitors of ATXN expression.; type: functional
# [15] = molecular target: T6, 4'-phosphopantetheinyl transferase ffp (Bacillus subtilis) (UniProt Q9F4F7); assay: qHTS Assay for Inhibitors of Bacillus subtilis Sfp phosphopantetheinyl transferase (PPTase).; type: functional
# T6 sequence (whole entry): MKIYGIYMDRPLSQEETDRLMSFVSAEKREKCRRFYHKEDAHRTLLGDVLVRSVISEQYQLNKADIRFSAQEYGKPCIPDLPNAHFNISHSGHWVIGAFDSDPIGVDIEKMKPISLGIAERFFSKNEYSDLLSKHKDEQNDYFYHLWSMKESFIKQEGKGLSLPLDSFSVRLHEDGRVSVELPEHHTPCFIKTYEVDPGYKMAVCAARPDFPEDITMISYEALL
smiles,measurement,setting,value
CCN(CCO)CCO.Oc1c(Cl)c(Cl)c(Cl)c(Cl)c1Cl,GI50,[1],inactive: 15.3 µM
same,GI50,[2],inactive: 32.7 µM
N1=C(c2nnn[nH]2)NNC(c2nnn[nH]2)=N1,GI50,[1],inactive: > 100 µM
same,GI50,[2],inactive: > 100 µM
CC1=C[C@H]2O[C@@H]3[C@H](O)[C@@H](O)[C@](C)([C@@]2(O)CC1)[C@]31CO1,GI50,[3],active: 0.258 µM
same,GI50,[1],active: 0.207 µM
same,GI50,[2],active: 0.218 µM
same,GI50,[4],active: 0.193 µM
same,GI50,[5],active: 0.0867 µM
COc1ccc(OP(C)(=O)Nc2cccc(Br)c2)cc1 (centres undefined),Potency,[6],inactive
O=[N+]([O-])c1cc([N+](=O)[O-])c(NCC2CCS(=O)(=O)C2)c([N+](=O)[O-])c1 (centres undefined),Potency,[7],active: 18.4 µM
C=CCN1CCN(CCOC(=O)C(O)(c2ccccc2)c2ccccc2)CC1,Potency,[8],inactive
same,Potency,[9],active: 79.4 µM
same,Potency,[10],active: 44.7 µM
CC(C)N1C(=O)CC2(CCN(CCOC(=O)C(O)(c3ccccc3)c3ccccc3)CC2)C1=O,Potency,[11],inactive
COc1ccc2c(c1O)-c1c(O)c(OC)cc3c1[C@H](C2)[N+](C)(C)CC3.O=[N+]([O-])c1cc([N+](=O)[O-])c(O)c([N+](=O)[O-])c1[O-],Potency,[12],inactive
same,Potency,[13],inactive
same,Potency,[14],active: 35.5 µM
Cc1cc(C)cc(OP(C)(=O)Nc2ccc(SC(F)(F)F)cc2)c1 (centres undefined),Potency,[15],inactive
